Values of other authors as cited in patent publication US9233107B2, “Compositions and methods for the treatment of progressive multifocal leukoencephalopathy (PML)” (Biogen MA Inc., priority 2007, dated 2016).

Target: A2a receptor (Homo sapiens, UniProt P29274)
Details: compared with the other enantiomer (Weiss, Benwell et al. 2003); cited from earlier work

## O[C@@H](c1cc(C(F)(F)F)nc2c(C(F)(F)F)cccc12)[C@H]1CCCCN1 (single isomer, unassigned) [(−) enantiomer]
  antagonistic activity against A2a receptor, in words: much more potent in antagonistic activity against A2a receptor
